## Binding of CDR-mutated scFvs to a peptide of the spike HR2 region

The measurements come from Li et al. 2023 (doi:10.1038/s41467-023-39022-2) through the FLAb antibody collection.

All variants were tested on one target, the spike HR2 peptide PDVDLGDISGINAS (SARS-CoV-2).

The variants keep the light chain, the linker and the frameworks of Ab-14 (scFv order VH, the linker GGGGSGGGGSGGGGS, VL).
VH: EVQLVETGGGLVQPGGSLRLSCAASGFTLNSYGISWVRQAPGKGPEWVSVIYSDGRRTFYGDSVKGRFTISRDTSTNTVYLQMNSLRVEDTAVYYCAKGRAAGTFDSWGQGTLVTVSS
VL: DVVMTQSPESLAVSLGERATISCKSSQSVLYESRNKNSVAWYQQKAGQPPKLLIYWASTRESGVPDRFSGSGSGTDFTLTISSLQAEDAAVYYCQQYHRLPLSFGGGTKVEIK

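The parent was found by panning a naive human phage display library on the peptide. This is the validation round: designs drawn from the data on random variants, tested in the same kind of assay. Group labels follow the data file (Ctrl: baseline library sampled from a position-specific scoring matrix, with some repeated check sequences; Rand: our label for a block that the file lists under HC and that is probably the random mutants of the ten best first-round binders; En: ensemble of fine-tuned language models; GP: Gaussian process model; GPLM: also part of the Gaussian process libraries; HC: hill climbing; Gen: genetic algorithm; Gibbs: Gibbs sampling; a sequence that several methods proposed may carry one label only). The assay is AlphaSeq: two haploid yeast populations carry antibody and antigen on their surface. After mating in shaken culture at 30 °C for 16 h, diploids were selected and their barcode pairs sequenced. A regression on co-assayed BCL2-family reference pairs converts the normalised counts of each replicate to an apparent Kd. There are six technical replicates.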

Each variant is given by its three heavy chain CDRs, as the data file delimits them; those of the parent are GFTLNSYGIS, VIYSDGRRTFYGDSVK, GRAAGTFDS.
The read-out is the apparent dissociation constant on a log10 scale (nM): the lower, the stronger.
A mean of the replicates is given; it leaves out those without a signal.
"not detected" means that the variant was in the library but no mating with the target was seen in any replicate; the authors take this as a sign of poor binding, and no number exists.
A sequence measured in both rounds can read differently, since the two assays cover different ranges.
The authors' rule: three or more of the six replicates give a measured affinity, fewer mean a poor binder.
Empty control strains, which show no peptide, gave a signal in 1% of pairings with all heavy chain designs; the median was 2.08 and 95% of these signals were weaker than 0.84. No background was subtracted. For each scFv, signals with the empty controls are counted beside the result.

{"CDR-H1": "GFNLDEYGIS", "CDR-H2": "VIYADGMRTQYKDQVK", "CDR-H3": "GNLVAHNMT", "group": "En_Gibbs", "mean log10 Kd (nM)": "2.44", "replicates with signal": "1 of 6", "signal with controls": "0 of 18"}
{"CDR-H1": "GFNLDEYGIS", "CDR-H2": "VIYADGRRTFYSDSVK", "CDR-H3": "GEAAGTFDS", "group": "En_HC", "mean log10 Kd (nM)": "-0.10", "replicates with signal": "4 of 6", "signal with controls": "0 of 18"}
{"CDR-H1": "KFTLNSYGIS", "CDR-H2": "VIYSDGRRTFYGGSVK", "CDR-H3": "GEDAGTFDS", "group": "Ctrl", "mean log10 Kd (nM)": "not detected", "replicates with signal": "0 of 6", "signal with controls": "0 of 18"}
{"CDR-H1": "DFNLNEYGIS", "CDR-H2": "VIYADGMRASYRNDVK", "CDR-H3": "GQISGDFML", "group": "En_Gibbs", "mean log10 Kd (nM)": "not detected", "replicates with signal": "0 of 6", "signal with controls": "0 of 18"}
{"CDR-H1": "GFNLNSYGIS", "CDR-H2": "VIYSDGRRTFYKDSVK", "CDR-H3": "GKEAGTFDS", "group": "GP_Gen", "mean log10 Kd (nM)": "-0.47", "replicates with signal": "6 of 6", "signal with controls": "0 of 18"}
{"CDR-H1": "GFTLNDYGIS", "CDR-H2": "VIYSDGRRTMYGDSVK", "CDR-H3": "GRAAGTFDS", "group": "GP_HC", "mean log10 Kd (nM)": "0.96", "replicates with signal": "5 of 6", "signal with controls": "0 of 18"}
{"CDR-H1": "GFDLGEYGIS", "CDR-H2": "VIYADGRRFAYSQSVK", "CDR-H3": "GLNEGMLVI", "group": "En_Gibbs", "mean log10 Kd (nM)": "not detected", "replicates with signal": "0 of 6", "signal with controls": "0 of 18"}
{"CDR-H1": "GFDLNSYGIS", "CDR-H2": "VIYSDGRRTFYGDSVK", "CDR-H3": "GRAAGTFNQ", "group": "GP_HC", "mean log10 Kd (nM)": "0.89", "replicates with signal": "1 of 6", "signal with controls": "0 of 18"}
{"CDR-H1": "GFTLNGYGIS", "CDR-H2": "VMYLDGRRTFYGDSFK", "CDR-H3": "GTAAGTFMS", "group": "Ctrl", "mean log10 Kd (nM)": "not detected", "replicates with signal": "0 of 6", "signal with controls": "2 of 18"}
{"CDR-H1": "GFDLDEYGIS", "CDR-H2": "VIYADGQRTAYADDVK", "CDR-H3": "GTNAGTFDV", "group": "En_Gen", "mean log10 Kd (nM)": "-0.01", "replicates with signal": "6 of 6", "signal with controls": "0 of 18"}
{"CDR-H1": "GFNLESYGIS", "CDR-H2": "VIYSDGRRTFYSDSVK", "CDR-H3": "GRLRGTFDS", "group": "Ctrl", "mean log10 Kd (nM)": "not detected", "replicates with signal": "0 of 6", "signal with controls": "0 of 18"}
{"CDR-H1": "GFDINEYGIS", "CDR-H2": "VIYADGSRAAYADRVK", "CDR-H3": "GQWGCVIYV", "group": "En_Gibbs", "mean log10 Kd (nM)": "not detected", "replicates with signal": "0 of 6", "signal with controls": "0 of 18"}
{"CDR-H1": "GFELDEYGIS", "CDR-H2": "VIYADGKRKAYDNAVK", "CDR-H3": "GFTGGVKLI", "group": "En_Gibbs", "mean log10 Kd (nM)": "not detected", "replicates with signal": "0 of 6", "signal with controls": "0 of 18"}
{"CDR-H1": "GFDLNEYGIS", "CDR-H2": "VIYADGMRTAYTDSVK", "CDR-H3": "GNEAGTFDE", "group": "En_HC", "mean log10 Kd (nM)": "0.16", "replicates with signal": "6 of 6", "signal with controls": "0 of 18"}
{"CDR-H1": "GFELNSYGIS", "CDR-H2": "VIYSDGRRTFYADSVK", "CDR-H3": "GDAAGTFDS", "group": "GPLM_Gen", "mean log10 Kd (nM)": "0.47", "replicates with signal": "6 of 6", "signal with controls": "0 of 18"}
{"CDR-H1": "GFTLNEYGIS", "CDR-H2": "VIYSDGRRTFYGDSVK", "CDR-H3": "GRAGVTFDW", "group": "Rand", "mean log10 Kd (nM)": "not detected", "replicates with signal": "0 of 6", "signal with controls": "1 of 18"}
{"CDR-H1": "GFELNSYGIS", "CDR-H2": "VIYSDGRRTFYGDSVK", "CDR-H3": "GSEAGTFDT", "group": "GP_Gen", "mean log10 Kd (nM)": "-0.21", "replicates with signal": "3 of 6", "signal with controls": "0 of 18"}
{"CDR-H1": "HFDLNSYGIS", "CDR-H2": "VIYSDGRRTFYADSVK", "CDR-H3": "GNAAGTFDS", "group": "GP_Gen", "mean log10 Kd (nM)": "0.73", "replicates with signal": "6 of 6", "signal with controls": "2 of 18"}
{"CDR-H1": "GFDLNEYGIS", "CDR-H2": "VIYADGRRTFYADSVK", "CDR-H3": "GNTAGTFDM", "group": "En_HC", "mean log10 Kd (nM)": "-0.46", "replicates with signal": "6 of 6", "signal with controls": "1 of 18"}
{"CDR-H1": "GFDLNEYGIS", "CDR-H2": "VIYADGMRSFYADSVK", "CDR-H3": "GQLAGTFDS", "group": "En_HC", "mean log10 Kd (nM)": "-0.95", "replicates with signal": "6 of 6", "signal with controls": "0 of 18"}
{"CDR-H1": "GFDLNEYGIS", "CDR-H2": "VIYADGMRTAYSDNVK", "CDR-H3": "GQVAGTFDL", "group": "En_Gen", "mean log10 Kd (nM)": "-0.40", "replicates with signal": "6 of 6", "signal with controls": "0 of 18"}
{"CDR-H1": "GFDLNEYGIS", "CDR-H2": "VIYADGRRTFYSDSVK", "CDR-H3": "GEAAGFFDV", "group": "En_HC", "mean log10 Kd (nM)": "2.24", "replicates with signal": "4 of 6", "signal with controls": "0 of 18"}